This note sets out measurements from PubChem BioAssay AID2435 (The Scripps Research Institute Molecular Screening Center, 2010).

The chains behind the UniProt entries cited, without tags or fusion partners.
UniProt P30559, whole entry: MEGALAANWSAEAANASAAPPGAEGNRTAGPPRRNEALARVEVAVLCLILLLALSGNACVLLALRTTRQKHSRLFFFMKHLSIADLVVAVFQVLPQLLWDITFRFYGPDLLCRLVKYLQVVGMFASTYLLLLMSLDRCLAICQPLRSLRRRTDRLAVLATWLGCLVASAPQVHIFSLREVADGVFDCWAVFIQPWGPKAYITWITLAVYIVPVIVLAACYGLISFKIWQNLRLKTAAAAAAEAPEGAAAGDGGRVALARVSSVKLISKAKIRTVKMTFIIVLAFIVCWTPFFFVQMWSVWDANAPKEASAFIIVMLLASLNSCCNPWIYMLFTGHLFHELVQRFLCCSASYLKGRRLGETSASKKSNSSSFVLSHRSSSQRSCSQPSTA

This is a selection; strong and weak results do not stand in their true shares. The source made the active and inactive calls.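 How the source made its calls: active means activation above the mean of all tested compounds plus 3 SD, cutoff set per screening run (cut at about 20% in these data); inactive means the rest.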

The target in the assay is Oxytocin receptor (Homo sapiens) (UniProt P30559). As to the kind of experiment: oxytocin receptor activation by calcium flux – fluorescence, CHO-OTR cells, Fluo-8 calcium, primary screen (AID 2435).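 Further: peak over basal fluorescence ratio from a 100 s FLIPR kinetic read.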 To be noted: Fluo-8 calcium fluorescence, at 3 µM, active compounds read high, normalized: DMSO 0%, oxytocin 100%. (A change in cytosolic calcium serves as a functional read-out for many receptors and channels.)
As to `O=[N+]([O-])c1cc([N+](=O)[O-])c(-c2cnn(-c3ccccc3)c2)c([N+](=O)[O-])c1`, the activation was inactive: -1.28%.

As for `Cc1cc(C)cc(OP(C)(=O)Nc2ccc(C)cc2C)c1` (stereo not drawn), the activation was inactive: 0.95%.

For the compound `CCOC(=O)c1ccc(NP(C)(=O)Oc2cc(C)cc(C)c2)cc1` (stereo not drawn), the activation is inactive: 5.34%.

In the case of `COc1ccccc1OP(C)(=O)Nc1cccc(Br)c1` (stereo not drawn), the activation was inactive: -2.21%.

As to `CP(=O)(Nc1cccc(Br)c1)Oc1ccccc1` (stereo not drawn), the activation is inactive: -1.17%.

Consider `Cc1cc(C)cc(OP(C)(=O)Nc2ccccn2)c1` (stereo not drawn), for which the activation is inactive: -1.14%.

In the case of `Cc1ccc(C)c(NP(C)(=O)Oc2ccccc2)c1` (stereo not drawn), the activation was inactive: -1.62%.

With `O=C(O)c1cccc(Nc2c([N+](=O)[O-])cc([N+](=O)[O-])cc2[N+](=O)[O-])c1`, the activation was inactive: -0.16%.

For the compound `CC1=NCCc2c1[nH]c1ccccc21.O=[N+]([O-])c1cc([N+](=O)[O-])c(O)c([N+](=O)[O-])c1`, the activation was inactive: -0.03%.

As to `CC(C)(C)c1ccc(OP(C)(=O)Nc2ccc(SC(F)(F)F)cc2)cc1` (stereo not drawn), the activation is inactive: -1.13%.

For the compound `Cc1cccc(C)c1OP(C)(N)=O` (stereo not drawn), the activation was inactive: 0.74%.

On to `O=[N+]([O-])c1ccc2c(c1)C=Nc1ccccc1O2`, for which the activation is inactive: -0.41%.

For the compound `O=[N+]([O-])c1cc([N+](=O)[O-])c(Nc2cccnc2)c([N+](=O)[O-])c1`, the activation was inactive: 14.1%.

With `COc1ccccc1OP(C)(=O)Nc1cc(Cl)ccc1C` (stereo not drawn), the activation is inactive: 2.51%.

Turning to `COc1ccc(OP(C)(=O)Nc2cccc(F)c2)cc1` (stereo not drawn), the activation is inactive: 0.09%.

In the case of `Cc1cc(C)cc(OP(C)(N)=O)c1` (stereo not drawn), the activation is inactive: 0.85%.

`CCOC(=O)c1ccc(NP(C)(=O)Oc2ccccc2)cc1` (stereo not drawn): the activation is inactive: 0.41%.

With `COc1ccccc1OP(C)(=O)Nc1ccc(C)cc1` (stereo not drawn), the activation was inactive: -1.1%.

`Cc1ccc(NP(C)(=O)Oc2ccccc2)c(C)c1` (stereo not drawn): the activation was inactive: -1.35%.

As to `CCN(CC)CCCOC(=O)C(O)(c1ccccc1)c1ccccc1`, the activation was inactive: -0.35%.

As for `CCc1ccc(OP(C)(=O)N2CCN(c3ccc([N+](=O)[O-])cc3)CC2)cc1` (stereo not drawn), the activation was inactive: 3.56%.

Regarding `CP(=O)(NC(=O)Nc1ccccc1)Oc1ccccc1` (stereo not drawn), the activation was inactive: -0.85%.

For the compound `Cc1cc(C)cc(OP(C)(=O)Nc2ccc(SC(F)(F)F)cc2)c1` (stereo not drawn), the activation is inactive: -1.14%.

In the case of `CP(=O)(Nc1ccc(SC(F)(F)F)cc1)Oc1ccc(Cl)cc1` (stereo not drawn), the activation is inactive: -1.73%.

Consider `Cc1cccc(C)c1OP(C)(=O)Nc1ccc(SC(F)(F)F)cc1` (stereo not drawn), for which the activation is inactive: 1.98%.

Turning to `CP(=O)(Oc1ccccc1)OC(c1ccccc1)C(F)(F)F` (stereo not drawn), the activation is inactive: -1.65%.

With `CP(=O)(Nc1ccccn1)Oc1ccc(Cl)cc1` (stereo not drawn), the activation was inactive: 2.27%.

With `CCOP(C)(=S)SCC(=O)NC(C)C(=O)O` (stereo not drawn), the activation is inactive: 0.06%.

In the case of `O=[N+]([O-])c1cc([N+](=O)[O-])c(O)c([N+](=O)[O-])c1.c1ccc(Oc2ccncc2)cc1`, the activation was inactive: 0.76%.

`CCOC(=O)c1ccc(NP(C)(=O)Oc2ccc(OC)cc2)cc1` (stereo not drawn): the activation was inactive: -0.49%.

Regarding `COc1ccccc1OP(C)(=O)Nc1ccccc1` (stereo not drawn), the activation was inactive: -0.86%.

`CP(=O)(Nc1ccccc1Br)Oc1ccccc1` (stereo not drawn): the activation is inactive: -0.21%.

For the compound `CP(=S)(Nn1cnnc1)Oc1ccccc1` (stereo not drawn), the activation was inactive: 1.52%.
